Results on 11 molecules are retold here after patent publication US20030027819A1, “Beta-sheet mimetics and methods relating to the use thereof” (Molecumetics Ltd., priority 1996, published 2003).

The target in one assay is thrombin (Bos taurus, UniProt P00735). In words: Thrombin inhibition by solid phase compounds of Tables 11-15. The note with it: read-out: Ki as thrombin inhibitors (mark at Cpd. No.); mixtures of diastereomers.
For a further assay, the system named is thrombus formation. In words: Rat silk thread shunt thrombosis model. The note with it: 100 mg.kg oral, 30 minutes before circulation.

Where only a bound is given, the exact number is not on record here.

In the case of `CC1=CC(C(=O)NCC2CCC(C(=N)N)CC2)n2c(=O)n(CCS(=O)(=O)c3ccccc3)c(=O)n2C1` (stereo not drawn), the Ki (in general, a dissociation constant, usually derived from enzyme kinetics or from competition with a known ligand) at thrombin is below 10 nM.

With `NC1CCC(CNC(=O)C2C=CCn3c(=O)n(CC(c4ccccc4)c4ccccc4)c(=O)n32)CC1` (stereo not drawn), the Ki at thrombin was below 10 nM.

On to `CC1=CC(C(=O)NCC2CCC(C(=N)N)CC2)n2c(=O)n(CCc3ccccc3)c(=O)n2C1` (stereo not drawn), for which the Ki at thrombin was below 10 nM.

For `CC1C=CC(C(=O)NCC2CCC(N)CC2)n2c(=O)n(CC(c3ccccc3)c3ccccc3)c(=O)n21` (stereo not drawn), the Ki at thrombin was below 10 nM.

Take `COc1ccc(S(=O)(=O)CCn2c(=O)n3n(c2=O)C(C(=O)NCC2CCC(N)CC2)C=CC3)cc1` (stereo not drawn): on thrombin, the Ki was below 10 nM.

As to `NC1CCC(CNC(=O)C2C=CCn3c(=O)n(CCS(=O)(=O)c4ccccc4)c(=O)n32)CC1` (stereo not drawn), at thrombin, the Ki is below 10 nM. In addition, the “thrombus formation (thrombus protein, FIGS. 5A and 5B)” value in the assay on thrombus formation is given as “significantly inhibit thrombus formation”.

`CC1=CC(C(=O)NCC2CCC(N)CC2)n2c(=O)n(CC(c3ccccc3)c3ccccc3)c(=O)n2C1` (stereo not drawn): the Ki on thrombin was below 10 nM.

Turning to `COc1ccc(CCn2c(=O)n3n(c2=O)C(C(=O)NCC2CCC(C(=N)N)CC2)C=C(C)C3)cc1OC` (stereo not drawn), on thrombin, the Ki is below 10 nM.

With `CCC1(N)C(=O)N2C(Cc3ccccc3)C=CC(C(=O)NC(CCCCN)C(=O)C(N)=O)N2C1=O` (stereo not drawn), at thrombin, the Ki is below 10 nM.

Regarding `Cc1ccc(S(=O)(=O)CCn2c(=O)n3n(c2=O)C(C(=O)NCC2CCC(N)CC2)C=CC3)cc1` (stereo not drawn), the Ki on thrombin is below 10 nM.

Turning to `CC1=CC(C(=O)NCC2CCC(N)CC2)n2c(=O)n(CC(C)c3ccccc3)c(=O)n2C1` (stereo not drawn), the Ki on thrombin was below 10 nM.
